Measured affinities in a library of Ab-95 light chain variants

The target is the same throughout: PDVDLGDISGINAS, from the HR2 region of SARS-CoV-2 spike.

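The library (AAYL52) carries one to three amino acid substitutions per variant, with no insertions or deletions. The assay is AlphaSeq: two haploid yeast populations carry antibody and antigen on their surface. Pairs that bind mate more often; barcode pairs of the diploids are counted by sequencing. A regression on co-assayed BCL2-family reference pairs converts the normalised counts of each replicate to an apparent Kd. There are three technical replicates.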

Ab-95 is the parent antibody, in scFv form: VH, then three GGGGS repeats, then VL. The heavy chain is unchanged in all variants.
VH: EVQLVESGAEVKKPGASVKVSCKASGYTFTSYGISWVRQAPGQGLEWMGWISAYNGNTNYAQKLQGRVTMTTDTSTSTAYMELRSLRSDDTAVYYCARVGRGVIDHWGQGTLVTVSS
VL: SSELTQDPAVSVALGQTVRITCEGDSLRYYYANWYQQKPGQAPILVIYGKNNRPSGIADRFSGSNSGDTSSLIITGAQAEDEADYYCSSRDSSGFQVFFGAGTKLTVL

Variants are written as CDR1, CDR2 and CDR3 of the light chain (limits as in the source). Parent: EGDSLRYYYAN, GKNNRPS, SSRDSSGFQVF. Affinities are written as log10 Kd with Kd in nM; a lower number is a better binder. Replicates are averaged; those with no signal do not enter the mean. An entry "not detected" has no value in the source: the pair was not observed among the diploids in any replicate. This suggests poor binding but is not conclusive. The list is sorted by this average, lowest first, undetected variants last. Empty control strains, which show no peptide, gave a signal in 28% of pairings with library AAYL52; the median was 3.91 and 95% of these signals were weaker than 2.90. No background was subtracted. Parent in this assay: reference entry 2.31, copy in this library 2.25.

| CDR-L1 | CDR-L2 | CDR-L3 | log10 Kd (nM), mean | detected |
|---|---|---|---|---|
| EGDSLRSGEAN | GKNNRPS | SSRDSSGFQVF | 0.89 | 3 of 3 |
| EGDSLNYGYKN | GKNNRPS | SSRDSSGFQVF | 1.66 | 3 of 3 |
| EGDSWRYYYAN | GKNNRPS | QSRDSSGFQVF | 1.82 | 3 of 3 |
| EGDSLRNIYAN | GKNNRPS | SSRDSSCFQVF | 1.83 | 3 of 3 |
| EGDSLRNYYAN | GKNNRPS | SSRDSSGFVVP | 1.97 | 3 of 3 |
| EGDSLRHYYAN | GKNNRPV | SSRDNSGFQVF | 1.99 | 3 of 3 |
| EGDSLRNYYAN | GKNNRPS | SSRPLSGFQVF | 2.09 | 3 of 3 |
| EGDSLRYYYAN | GKNNRPS | SSRLSSGFMFF | 2.26 | 3 of 3 |
| EGDSNRYHYAN | GKNNRPS | SSRHSSGFQVF | 2.30 | 3 of 3 |
| EGDSLRYYYAN | GKNNRPS | FSRDSSWFQVF | 2.36 | 3 of 3 |
| EFDSLRGYYAN | GKNNRPM | SSRDSSGFQVF | 2.45 | 3 of 3 |
| EGDSLEYYYSN | GKNNRPS | SSRDSSGFQVF | 2.54 | 3 of 3 |
| EGDSLRYYYAN | GKNNRPS | SSSDISGFQVF | 2.57 | 3 of 3 |
| SGDSLRYYYAN | GKNNRPS | SPRDSWGFQVF | 2.64 | 3 of 3 |
| EGDSLRYYYAN | GKNNRPS | SSRDCSRFQVF | 2.70 | 3 of 3 |
| EGDSLRYYYAN | GKKNRPS | SSRDSSTFQVA | 2.75 | 1 of 3 |
| EGMSLGYYYAN | GKNNRPQ | SSRDSSGFQVF | 2.90 | 3 of 3 |
| EGDSLDYYYAN | GKNNRPS | SSADSSGYQVF | 3.04 | 3 of 3 |
| EGDSLRYYYAN | GKNNRWS | SSRDSSGFQAF | 3.12 | 3 of 3 |
| EGDSLRYYYAN | GKNNRMS | SSRDHSGFQVL | 3.16 | 3 of 3 |
| EGDSLRYYYAN | GKRNRPD | SSRDSSWFQVF | 3.38 | 3 of 3 |
| EGDSLRYYYYN | GKNNRPS | SSRDSSGFYVF | 3.44 | 2 of 3 |
| EGDSNRYYYRN | GKNNRPS | SSRKSSGFQVF | 3.45 | 3 of 3 |
| ELDSLRYYYAN | GKNNRPS | SSRDSTGFQVF | 3.47 | 2 of 3 |
| YGDSFRYYYAN | GKNNRPS | SSRDSIGFQVF | 3.51 | 3 of 3 |
| EGDILRYYYAW | GLNNRPS | SSRDSSGFQVF | 3.53 | 3 of 3 |
| EGDSLRYYCSN | GKNNRPP | SSRDSSGFQVF | 3.67 | 3 of 3 |
| EGDSLRYFYAN | GANNRPS | SSRDSSGFEVF | 3.68 | 3 of 3 |
| EQDSLRYYYAN | GKNNRPS | SSRNSSGPQVF | 3.68 | 2 of 3 |
| FGDHVRYYYAN | GKNNRPS | SSRDSSGFQVF | 3.69 | 1 of 3 |
| EGTSLRYYYAN | GKNNKPS | SSEDSSGFQVF | 3.71 | 2 of 3 |
| EGDSLRYYYAN | GKNNRPS | SFRDTSGFEVF | 3.76 | 3 of 3 |
| EGDSLRYYYAN | GKNNRPM | SSRDSSHVQVF | 3.77 | 2 of 3 |
| EGDSLRYYYAP | HKNNRPS | SSRDSSGFGVF | 3.79 | 1 of 3 |
| EGDCLRYYYAN | GKNNRPS | SSRDSSMFQVG | 3.82 | 3 of 3 |
| EGDSLRYYYAN | GKNNRPS | SSRISKPFQVF | 3.83 | 2 of 3 |
| EGDSLRYYFAN | EKNNRPS | SSRDGSGFQVF | 3.86 | 3 of 3 |

Second part, the sequence after the result:

| log10 Kd (nM), mean | detected | CDR-L1 | CDR-L2 | CDR-L3 |
|---|---|---|---|---|
| 3.86 | 2 of 3 | EGDSLRYYYYN | GFNNRPS | SSRDSSGFDVF |
| 3.87 | 1 of 3 | EGDSLRYYYFA | GKNNRPS | SSRDSSGFQKF |
| 3.89 | 2 of 3 | EGDSNRYYCAN | GKNNRDS | SSRDSSGFQVF |
| 3.94 | 2 of 3 | EGDAARYYYAN | GKNNRPS | SSRDLSGFQVF |
| 3.94 | 2 of 3 | LLDSLRYYYAN | GKNNRPS | SSRDSSGFQGF |
| 3.98 | 3 of 3 | EGDSLRYYYAN | GKNNRKS | SPRDSSVFQVF |
| 4.02 | 2 of 3 | EGDSLRYYRAN | GKNNQPL | SSRDSSGFQVF |
| 4.04 | 1 of 3 | EGDSLRLYYAM | GKNNRPI | SSRDSSGFQVF |
| 4.04 | 3 of 3 | EGDSLHYYYAN | GYNNWPS | SSRDSSGFQVF |
| 4.05 | 3 of 3 | EGDSLRYYYAN | GKNNRPS | SSRASYGFQVF |
| 4.05 | 2 of 3 | EGDSLRYYYMN | GKNSRPS | SSRDSSGFQVC |
| 4.07 | 1 of 3 | EGQSLRYYYMN | GKDNRPS | SSRDSSGFQVF |
| 4.08 | 3 of 3 | EGDSLRYYYSN | GKNNWPS | SSRDSSGFQVD |
| 4.16 | 2 of 3 | EGDSLRYYYAN | GKNNRVS | SVRDSGGFQVF |
| 4.19 | 1 of 3 | EGDSLWSYYAK | GKNNRPS | SSRDSSGFQVF |
| 4.22 | 3 of 3 | EGDSLRYYYAN | GWNMRPS | SSRDSSGFQHF |
| 4.26 | 3 of 3 | EKDSLRCYYAN | GKNNRPS | SSRDSSGFQVF |
| 4.29 | 2 of 3 | EGDSHRYYYAN | GKNNRPS | SMRDSFGFQVF |
| 4.29 | 2 of 3 | EGDSLRYYYAN | GKNNRPS | RCRDSSGWQVF |
| 4.37 | 2 of 3 | IGDSLRYYYDN | GKNNRPS | SSRDSSGFCVF |
| 4.44 | 2 of 3 | EGDSLRHYYMN | GKNNRPS | SSRDSSGLQVF |
| 4.44 | 2 of 3 | EGDSLRYYYAN | GINNRFS | SSRDSSIFQVF |
| 4.44 | 2 of 3 | EGDSLRYYYAY | GKNNRYS | SSRDSSGFQVF |
| 4.79 | 1 of 3 | EGDSLRYYYNN | GKNANPS | SSRDSSGFQVF |
| 5.86 | 1 of 3 | EGDSFRYYYAN | GINNRPS | STRDSSGFQVF |
| not detected | 0 of 3 | EGWSLRYYYCN | GKCNRPS | SSRDSSGFQVF |
| not detected | 0 of 3 | EGDSLRCYYAN | GKNHRPS | SSRDSSGFQVR |
| not detected | 0 of 3 | EGDSCRYYYAN | FKNNEPS | SSRDSSGFQVF |
| not detected | 0 of 3 | EYDSLRDYYAV | GKNNRPS | SSRDSSGFQVF |
| not detected | 0 of 3 | EGCSLRYYYAN | GKVNRPW | SSRDSSGFQVF |
| not detected | 0 of 3 | EGDSLRYYYAN | RKNNVPS | SSRDSSGYQVF |
| not detected | 0 of 3 | EGDSLRYYYAK | GKNNRPS | SSRDSSGFCVP |
| not detected | 0 of 3 | EGDQLRYYYAN | GKNNRPS | EERDSSGFQVF |
| not detected | 0 of 3 | EGDSLRYKDAN | GKNNRPS | SSRDSSGLQVF |
| not detected | 0 of 3 | EGDSLRYYYAN | GKINRPA | KSRDSSGFQVF |
| not detected | 0 of 3 | EGDSLRYYYDN | GKNNRPF | SHRDSSGFQVF |
| not detected | 0 of 3 | EGDSLRYYYAN | GKNGLPS | RSRDSSGFQVF |

Repeated from above, the 7 best binders with a signal in all replicates:

{"CDR-L1": "EGDSLRSGEAN", "CDR-L2": "GKNNRPS", "CDR-L3": "SSRDSSGFQVF", "log10 Kd (nM), mean": "0.89", "detected": "3 of 3"}
{"CDR-L1": "EGDSLNYGYKN", "CDR-L2": "GKNNRPS", "CDR-L3": "SSRDSSGFQVF", "log10 Kd (nM), mean": "1.66", "detected": "3 of 3"}
{"CDR-L1": "EGDSWRYYYAN", "CDR-L2": "GKNNRPS", "CDR-L3": "QSRDSSGFQVF", "log10 Kd (nM), mean": "1.82", "detected": "3 of 3"}
{"CDR-L1": "EGDSLRNIYAN", "CDR-L2": "GKNNRPS", "CDR-L3": "SSRDSSCFQVF", "log10 Kd (nM), mean": "1.83", "detected": "3 of 3"}
{"CDR-L1": "EGDSLRNYYAN", "CDR-L2": "GKNNRPS", "CDR-L3": "SSRDSSGFVVP", "log10 Kd (nM), mean": "1.97", "detected": "3 of 3"}
{"CDR-L1": "EGDSLRHYYAN", "CDR-L2": "GKNNRPV", "CDR-L3": "SSRDNSGFQVF", "log10 Kd (nM), mean": "1.99", "detected": "3 of 3"}
{"CDR-L1": "EGDSLRNYYAN", "CDR-L2": "GKNNRPS", "CDR-L3": "SSRPLSGFQVF", "log10 Kd (nM), mean": "2.09", "detected": "3 of 3"}

From the AlphaSeq antibody data of Engelhart et al. 2022 (doi:10.1038/s41597-022-01779-4), copy in the FLAb collection.